Assays:
[1] = Human liver microsome stability assay; format: in vitro ADME; settings: 0.5 mg/mL microsomes, 37° C.
[2] = Human plasma stability assay

- unchanged after 1 h in human liver microsomes [1]: 50%
- stability in human plasma in words [2]: reasonably stable
- remaining after 1 h in human plasma ([2]; 5 μM, 37° C., 1 h): 90%
Structure (SMILES): CC(C)N(CCCNC(=O)Nc1ccc(C(C)(C)C)cc1)C[C@H]1O[C@@H](n2cnc3c(N)ncnc32)[C@H](O)[C@@H]1O [SYC-522]

— patent US20160168185A1
